scFv variants of Ab-14 (light chain) against a SARS-CoV-2 spike peptide

The measurements come from Li et al. 2023 (doi:10.1038/s41467-023-39022-2) through the FLAb antibody collection.

Target: peptide PDVDLGDISGINAS, taken from heptad repeat 2 (HR2) of SARS-CoV-2 spike.

Each scFv is VH, three GGGGS repeats, VL, as in the parent Ab-14, and differs from it in the CDRs of the light chain only.
VH: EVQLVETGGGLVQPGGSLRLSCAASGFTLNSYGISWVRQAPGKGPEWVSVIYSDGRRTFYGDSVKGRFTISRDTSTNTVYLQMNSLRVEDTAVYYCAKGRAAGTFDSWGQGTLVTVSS
VL: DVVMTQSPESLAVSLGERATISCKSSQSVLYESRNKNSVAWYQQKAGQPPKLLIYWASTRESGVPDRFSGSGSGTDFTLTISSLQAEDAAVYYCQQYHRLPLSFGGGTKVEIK

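The parent was found by panning a naive human phage display library on the peptide. This is the validation round: designs drawn from the data on random variants, tested in the same kind of assay. Group labels follow the data file (Ctrl: baseline library sampled from a position-specific scoring matrix, with some repeated check sequences; En: ensemble of fine-tuned language models; GP: Gaussian process model; HC: hill climbing; Gen: genetic algorithm; Gibbs: Gibbs sampling; a sequence that several methods proposed may carry one label only). The scFvs were displayed on barcoded MATa yeast, the peptide on MATalpha yeast. Mating (16 h, 30 °C) was followed by selection of diploids and sequencing of their barcodes. Read counts were normalised to the haploid input and turned into Kd by a linear fit to BCL2-family pairs of known affinity, for each replicate. Mating was done six times.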

Each variant is given by its three light chain CDRs, as the data file delimits them; those of the parent are KSSQSVLYESRNKNSVA, WASTRES, QQYHRLPLS. Each Kd is an estimate from the mating assay, the geometric mean of the replicates in which the pair was seen; lower is stronger. Where no diploid with the target was found in any replicate, the entry reads "nd": below detection, most likely a poor binder, though not proof of it.

The variant KMSGSVMMLSRNVNSVA / QASTREQ / QQYHRLPLS [GP_Gibbs] gave 810 pM (6 of 6 replicates; controls 0 of 18).
The variant KLSQSVLYEDRNKNNVA / HASTRES / QQYHRLPLS [GP_Gen] gave 350 pM (6 of 6 replicates; controls 3 of 18).
The variant KFFQSQLYEQRNQNSVA / SASYRMS / QQYHRLPLS [GP_Gibbs] gave 2.1 nM (6 of 6 replicates; controls 1 of 18).
The variant KLSQSELYESRNKNSVA / NASTRCD / QQYHRLPLS [GP_Gen] gave 930 pM (6 of 6 replicates; controls 0 of 18).
The variant MISQIYNMGQFAINSVA / QAQTRNE / QQYDRLPLM [En_Gen] gave 25 nM (5 of 6 replicates; controls 0 of 18).
The variant KISQSVLYEDRNKNSVA / EASTRES / DQYHRHPLS [Ctrl] gave 1.5 nM (6 of 6 replicates; controls 1 of 18).
The variant KLSQSNLYESRNKNSVA / NASTRMQ / QQYHRLPLS [GP_Gen] gave 680 pM (6 of 6 replicates; controls 1 of 18).
The variant KLAATSLYESGAANSVA / QNSTRES / QQYHRLPLS [En_HC] gave 890 nM (3 of 6 replicates; controls 1 of 18).
The variant TISQVMNTLSRQGNNVA / DLAEREK / QQYFRLPLS [En_Gen] gave 3.5 nM (5 of 6 replicates; controls 0 of 18).
The variant IVSQLMLWGMHHKNSIA / EASTRLN / QQYERLPLF [En_Gen] gave nd (0 of 6 replicates; controls 0 of 18).
The variant MVTQMAMTGMMSKRSVA / NAETRED / QQYHHLPLI [En_Gen] gave 180 nM (3 of 6 replicates; controls 0 of 18).
The variant KLSQSQLYESRNKNSVA / NASTRES / QSYHRLPLS [GP_Gen] gave 470 pM (6 of 6 replicates; controls 3 of 18).
The variant KQSQSEPGESRNMNSVA / HASQRES / QQYHRLPLS [GP_Gibbs] gave 2.1 nM (6 of 6 replicates; controls 0 of 18).
The variant KLTMVTGTEKVRGNNVA / EMETRER / QQYNRLPLA [En_Gen] gave 5.1 nM (6 of 6 replicates; controls 1 of 18).
The variant KLLQEVTGHSRNRNSVA / HNSTRED / QQYDRLPLI [En_HC] gave nd (0 of 6 replicates; controls 0 of 18).
The variant KCSQSVLYESRNCNSVA / GASTRES / QQYHRLPLS [Ctrl] gave 2.0 nM (6 of 6 replicates; controls 4 of 18).
The variant QVQYHPGESLRHTSSIA / DVNIKDM / QQYSRLPLS [En_Gibbs] gave 2.7 nM (6 of 6 replicates; controls 1 of 18).

The remaining entries, values ahead:

600 pM (6 of 6 replicates; controls 0 of 18): KMSKMVMEGSRNKNSVA / EASQREE / QQYHRLPLS [GP_Gibbs].
4.0 nM (6 of 6 replicates; controls 1 of 18): TISQVMNTLTRHGNNVA / DLTERED / QQYFRLPLS [En_Gen].
nd (0 of 6 replicates; controls 1 of 18): KVSEFMKGLMMRTDSIA / DNTTRGS / QQYDRLPLS [En_Gen].
22 nM (6 of 6 replicates; controls 3 of 18): RVQIWSGHSDMHWKSIA / SASLRAS / QQYARLPLE [En_Gibbs].
4.2 nM (6 of 6 replicates; controls 1 of 18): TISQMTSLFSQTINNVA / EVSTREP / QQYDRLPLV [En_Gen].
250 nM (1 of 6 replicates; controls 1 of 18): KSSQSVLYESRNKNSVA / WASTRES / QQYTRLPLS [Ctrl].
860 pM (6 of 6 replicates; controls 1 of 18): KFGQMVLTGSYVSNSVA / QSSTREN / QQYHRLPLS [En_HC].
5.4 nM (6 of 6 replicates; controls 0 of 18): MIGEMLMQGAYKKNSVA / QANLRAE / QHYHRLPLE [En_Gen].
nd (0 of 6 replicates; controls 0 of 18): KSSQSVLMESRNKNSVC / WASTRES / QQYHRLPLS [Ctrl].
71 nM (5 of 6 replicates; controls 0 of 18): HMSMLTMMGMRHRNSVA / QMTMREN / QQYDRLPLM [En_Gen].
48 nM (4 of 6 replicates; controls 1 of 18): KSSQGWLYESRNKNSVA / WASTRES / QQYHRLPLS [Ctrl].
1.9 nM (6 of 6 replicates; controls 0 of 18): ILSQMLLTAGNKYNSVA / QANYRES / QQYHRLPLS [En_HC].
1.9 nM (6 of 6 replicates; controls 2 of 18): KLQQSDLYESRNKNSVA / NASYRES / QQYHRLPLS [GP_Gen].
2.8 nM (6 of 6 replicates; controls 1 of 18): KLLQEVTGRTQNRNSVA / HNSTRED / QQYDRLPLI [En_HC].
1.1 nM (6 of 6 replicates; controls 1 of 18): KISQSVWYESRNKNSVA / AASTRES / QQYHRLCLS [Ctrl].
31 nM (2 of 6 replicates; controls 1 of 18): KLDHYKLGENGMRGSVA / NMTIREY / QQYFHLPLF [En_Gibbs].
520 pM (6 of 6 replicates; controls 1 of 18): KVSQSMLYESRNKNNVA / NASTRES / QQYHRLPLS [GP_Gen].

The authors' rule: three or more of the six replicates give a measured affinity, fewer mean a poor binder. Background: pairings of all light chain designs with three empty control strains gave a value in 4% of cases (median 430 nM, 5th percentile 38 nM). Values in that range, when seen in few replicates, are hard to tell from nonspecific mating. For each scFv, signals with the empty controls are counted beside the result. The parent sequence was in this pool as ten entries: three were never detected, three once, and four in most replicates, with averages from 2.2 nM to 240 nM. The range of this assay differs from that of the first round, and the authors advise against merging the two.